Test results as given in publication PMC8065111, “Inhibition of polar actin assembly by astral microtubules is required for cytokinesis” (Nature Communications, 2021).

Protein sequences, listed by entry. Tags and fused reporters are not part of them. Residues count along the entry.
UniProt O60610, 580-1272: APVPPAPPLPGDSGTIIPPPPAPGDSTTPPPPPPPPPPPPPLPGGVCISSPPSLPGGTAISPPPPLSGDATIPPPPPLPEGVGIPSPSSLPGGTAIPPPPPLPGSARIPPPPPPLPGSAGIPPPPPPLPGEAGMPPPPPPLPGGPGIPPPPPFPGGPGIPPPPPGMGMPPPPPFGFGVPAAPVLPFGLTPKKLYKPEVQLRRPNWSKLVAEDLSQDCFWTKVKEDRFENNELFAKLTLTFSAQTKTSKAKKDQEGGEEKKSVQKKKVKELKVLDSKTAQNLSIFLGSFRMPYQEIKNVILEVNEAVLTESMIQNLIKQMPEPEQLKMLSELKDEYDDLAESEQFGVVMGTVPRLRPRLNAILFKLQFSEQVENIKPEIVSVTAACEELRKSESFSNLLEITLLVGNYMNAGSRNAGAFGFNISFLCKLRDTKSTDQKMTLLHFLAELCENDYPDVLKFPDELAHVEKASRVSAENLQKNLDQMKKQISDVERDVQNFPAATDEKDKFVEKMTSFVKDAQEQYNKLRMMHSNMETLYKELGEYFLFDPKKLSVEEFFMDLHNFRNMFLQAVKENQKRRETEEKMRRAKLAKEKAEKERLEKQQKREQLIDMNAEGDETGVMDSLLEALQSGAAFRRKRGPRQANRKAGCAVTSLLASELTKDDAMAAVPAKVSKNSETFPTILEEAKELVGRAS

Target: T1, MBP-DIAPH1-CT (human, UniProt O60610 580-1272)
T1 construct: human DIAPH1, C-terminal actin nucleating half, residues 580-1272; cloned into pKM596 to give an MBP fusion; also called recombinant C-terminal half of DIAPH1; source: E. coli ER2523, purified (amylose resin)
Test: pull-down; 0.05 nmol His6-DIAPH1-NT immobilised on nickel-Sepharose beads, with or without equimolar GST-IQGAP1 or GST-RhoA (2 h), then equimolar MBP-DIAPH1-CT (2 h); 25 mM HEPES pH 7.5, 120 mM NaCl, 1 mM EGTA, 0.3% Triton X-100, 1 mM beta-mercaptoethanol; 4 °C; anti-MBP blot
Conditions: both partners purified

B1: His6-DIAPH1-NT (domain or fragment, human, UniProt O60610 1-575, looked up)
chain: MEPPGGSLGPGRGTRDKKKGRSPDELPSAGGDGGKSKKFTLKRLMADELERFTSMRIKKEKEKPNSAHRNSSASYGDDPTAQSLQDVSDEQVLVLFEQMLLDMNLNEEKQQPLREKDIIIKREMVSQYLYTSKAGMSQKESSKSAMMYIQELRSGLRDMPLLSCLESLRVSLNNNPVSWVQTFGAEGLASLLDILKRLHDEKEETAGSYDSRNKHEIIRCLKAFMNNKFGIKTMLETEEGILLLVRAMDPAVPNMMIDAAKLLSALCILPQPEDMNERVLEAMTERAEMDEVERFQPLLDGLKSGTTIALKVGCLQLINALITPAEELDFRVHIRSELMRLGLHQVLQDLREIENEDMRVQLNVFDEQGEEDSYDLKGRLDDIRMEMDDFNEVFQILLNTVKDSKAEPHFLSILQHLLLVRNDYEARPQYYKLIEECISQIVLHKNGADPDFKCRHLQIEIEGLIDQMIDKTKVEKSEAKAAELEKKLDSELTARHELQVEMKKMESDFEQKLQDLQGEKDALHSEKQQIATEKQDLEAEVSQLTGEVAKLTKELEDAKKEMASLSAAAITVPPS
notes: human DIAPH1, N-terminal fragment, residues 1-575 of the 1272-residue protein; plasmid pET30a-DIAPH1-NT(1-575aa); Plasmid was a gift from J. Copeland; also called N-terminal fragment of DIAPH1; DIAPH1 N-terminal regulatory domains; source: E. coli BL21, purified (nickel-Sepharose)
Question: Does B1 bind?
Answer: binds
